{"sequences": {"note": "Chains of the proteins cited; added tags and fusions are not shown. Residues count along the entry.", "UniProt H0W3H1, 1-470": "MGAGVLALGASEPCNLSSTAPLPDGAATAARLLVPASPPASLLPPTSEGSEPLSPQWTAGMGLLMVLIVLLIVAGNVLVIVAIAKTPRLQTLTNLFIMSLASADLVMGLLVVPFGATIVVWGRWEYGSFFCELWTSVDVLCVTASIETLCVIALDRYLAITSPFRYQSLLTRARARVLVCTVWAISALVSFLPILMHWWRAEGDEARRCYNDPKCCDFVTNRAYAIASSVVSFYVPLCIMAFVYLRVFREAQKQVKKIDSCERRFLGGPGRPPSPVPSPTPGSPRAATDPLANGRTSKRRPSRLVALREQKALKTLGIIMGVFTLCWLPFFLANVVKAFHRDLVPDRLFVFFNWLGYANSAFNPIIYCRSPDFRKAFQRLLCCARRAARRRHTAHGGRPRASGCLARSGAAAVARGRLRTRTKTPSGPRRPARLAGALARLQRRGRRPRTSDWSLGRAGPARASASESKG"}, "source": "patent US4737504A", "about": "(dated 1988)", "biological_target": "β1-adrenoceptors (guinea pig atria) (Cavia porcellus, UniProt H0W3H1)", "test": "chronotropic response of spontaneously beating guinea pig right atria (β1-adrenergic activity)", "data": [{"smiles": "COc1cc(CC2NCCc3cc(O)c(O)cc32)cc(OC)c1OC", "note": "(stereo not shown) [TMQ, trimetoquinol, reference compound]", "values": [{"measurement": "EC50", "result": 30.2, "unit": "nM"}]}]}
